Literature values in patent publication US9539337B2, “Compositions comprising two different populations of polymer-active agent conjugates” (priority 2003, dated 2017).

Settings: relative to native interferon alpha-2a

## PEGASYS: PEGASYS brand PEGylated interferon alpha-2a (Hoffmann-La Roche)
  in vitro activity in comparison with the native form of this interferon: about 7%
